Protein sequences, listed by entry. Tags and fused reporters are not part of them.
UniProt Q4J6C6, whole entry: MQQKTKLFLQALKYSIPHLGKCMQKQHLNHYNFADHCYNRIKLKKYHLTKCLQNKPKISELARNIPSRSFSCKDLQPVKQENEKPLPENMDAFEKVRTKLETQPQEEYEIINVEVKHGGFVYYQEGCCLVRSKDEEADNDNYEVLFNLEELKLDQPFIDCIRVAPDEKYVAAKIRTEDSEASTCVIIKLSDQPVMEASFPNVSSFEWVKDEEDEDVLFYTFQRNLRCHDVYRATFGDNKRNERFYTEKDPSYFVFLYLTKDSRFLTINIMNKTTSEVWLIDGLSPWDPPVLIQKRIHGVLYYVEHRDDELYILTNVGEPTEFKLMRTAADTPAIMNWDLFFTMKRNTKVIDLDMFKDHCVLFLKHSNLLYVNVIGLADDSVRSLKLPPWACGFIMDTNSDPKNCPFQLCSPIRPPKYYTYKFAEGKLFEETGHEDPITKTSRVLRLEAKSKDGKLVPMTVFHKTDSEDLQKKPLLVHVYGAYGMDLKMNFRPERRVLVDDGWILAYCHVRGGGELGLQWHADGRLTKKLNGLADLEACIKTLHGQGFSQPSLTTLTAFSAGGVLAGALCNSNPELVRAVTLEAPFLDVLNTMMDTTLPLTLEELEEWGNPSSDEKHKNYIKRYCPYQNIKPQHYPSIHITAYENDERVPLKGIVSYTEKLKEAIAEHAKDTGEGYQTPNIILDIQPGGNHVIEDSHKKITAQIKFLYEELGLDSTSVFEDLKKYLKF

The list shows a part of the results, in another mix than the full data. Activity calls are given as the source filed them. Cut-off read from the data, not from the text of the source: active = inhibition above about 43%; inactive = the rest.
These compounds were tested against Prolyl endopeptidase-like (Homo sapiens) (UniProt Q4J6C6) (assay: PREPL enzyme inhibitors, primary screen, biochemical, fluorescence polarization (AID 2751;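 note: 0% = enzyme with DMSO and 100% = wells lacking enzyme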)). Conditions: recombinant PREPL, fluorescence polarization activity-based probe; at 5.96 µM; active compounds read high.
With `CCC(=O)N(c1ccccc1)C1(COC)CCN(CCn2nnn(CC)c2=O)CC1` the inhibition was inactive: 14.4%.
For `CCC(=O)N(c1ccccc1)C1(COC)CCN(CCc2cccs2)CC1`, the inhibition was inactive: 1.84%.

Reference: PubChem BioAssay AID2751 (The Scripps Research Institute Molecular Screening Center, 2010)
